This experiment deals with Her2 (UniProt P04626). The experiment can be described thus: cell-based or functional assay.

Consider 4D5-AzAb (HC274: LC70)-AF (antibody), for which the EC50 nM, concentration of the drug to kill 50% of the tumor cells in vitro, HCC1954 cells worked out at 0.0306 nM and the EC50 nM, concentration of the drug to kill 50% of the tumor cells in vitro, SKOV3 cells is 0.108 nM.
